Experimental data published in ChEMBL document CHEMBL1132988.

Chains of the proteins cited; added tags and fusions are not shown. Lines headed by an entry give the natural chain unless they say otherwise; changes in a name come on top.
UniProt P34975: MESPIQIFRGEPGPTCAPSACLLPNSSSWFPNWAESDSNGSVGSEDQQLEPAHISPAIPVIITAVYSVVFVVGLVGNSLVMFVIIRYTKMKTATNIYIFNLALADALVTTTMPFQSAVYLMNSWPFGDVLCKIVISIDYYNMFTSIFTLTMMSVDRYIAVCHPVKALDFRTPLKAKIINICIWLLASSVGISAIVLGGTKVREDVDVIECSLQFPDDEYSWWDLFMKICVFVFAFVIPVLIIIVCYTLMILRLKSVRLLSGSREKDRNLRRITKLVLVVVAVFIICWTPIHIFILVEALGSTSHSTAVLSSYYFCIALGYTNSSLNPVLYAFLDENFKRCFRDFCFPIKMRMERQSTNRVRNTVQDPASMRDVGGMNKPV

Molecular target: Kappa-type opioid receptor (Rattus norvegicus, UniProt P34975)
Test: Dissociation constant against wild type EL-2 Opioid receptor kappa 1 expressed in HEK cells
Conditions: hek293

With `CO[C@]12CC[C@@]3(C[C@@H]1C(C)(C)O)[C@H]1Cc4ccc(O)c5c4[C@@]3(CCN1CC1CC1)[C@H]2O5` the Kd was 0.029 nM.
